102 molecules from PubChem BioAssay AID504766 (The Scripps Research Institute Molecular Screening Center, 2011) can be followed below.

Chains of the proteins cited; added tags and fusions are not shown. Lines headed by an entry give the natural chain unless they say otherwise; changes in a name come on top.
UniProt P51843: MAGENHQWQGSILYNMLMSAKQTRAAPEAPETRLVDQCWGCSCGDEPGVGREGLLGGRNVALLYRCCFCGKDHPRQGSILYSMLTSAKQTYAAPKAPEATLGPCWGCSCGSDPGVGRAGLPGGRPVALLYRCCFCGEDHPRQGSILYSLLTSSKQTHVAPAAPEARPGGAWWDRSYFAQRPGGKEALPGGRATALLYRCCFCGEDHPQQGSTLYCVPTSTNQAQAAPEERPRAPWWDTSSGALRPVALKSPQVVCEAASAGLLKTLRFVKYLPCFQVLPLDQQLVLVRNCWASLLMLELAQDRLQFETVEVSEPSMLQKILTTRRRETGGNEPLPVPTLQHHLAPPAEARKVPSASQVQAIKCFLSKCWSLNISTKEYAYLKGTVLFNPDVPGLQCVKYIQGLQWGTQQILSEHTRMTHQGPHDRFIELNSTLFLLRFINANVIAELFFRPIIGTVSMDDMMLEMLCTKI

The list shows a part of the results, in another mix than the full data. The source made the active and inactive calls.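 The calls were made as follows: active = inhibition above the mean over all tested compounds plus 3 SD (cut at about 4.2% in these data); inactive = the rest.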

This assay deals with Nuclear receptor subfamily 0 group B member 1 (Homo sapiens) (UniProt P51843). The assay can be described thus: DAX1 (NR0B1) inhibitors, primary screen, cell-based, HEK293, Gal4-DAX1, luciferase luminescence (AID 504766).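 Also: 0% = DAX1-transfected cells with DMSO and 100% = empty-vector control cells with DMSO; inhibition shows as a rise in luminescence from relieved DAX1 repression.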 As to conditions: HEK293 Gal4-DAX1 luciferase reporter, at 6.75 µM, hits give high values.
In the case of `N#C/C(=C\c1ccc(N(CCBr)CCBr)cc1)C(N)=O`, the inhibition was inactive: 0.93%.
As for `CC(=O)c1ccc(N2CC2c2ccncc2)cc1` (configuration not stated), the figure is inactive: 0.92%; as for `COC(=O)C1(C)COP(=O)(NCc2ccccc2)OC1` (configuration not stated), inactive: -0.46%; as for `Cc1ccccc1CN(C)C(=O)COC(=O)C(O)(c1ccccc1)c1ccccc1`, inactive: -0.47%.
In the case of `C[C@@H]1C=CCP(=O)(Oc2ccccc2)O1` (some centres not stated), the inhibition was inactive: 0.75%.
In the case of `C[C@H]1OP(=O)(Oc2ccccc2)C[C@@H]2O[C@@H]21` (some centres not stated), the inhibition is inactive: -0.2%.
For the molecule `CC(=O)Nc1ccc([As](=O)(O)O)c(O)c1`, the inhibition was inactive: 2.85%.
On to `CC(=O)Nc1ccc(Oc2c([N+](=O)[O-])cc([N+](=O)[O-])cc2[N+](=O)[O-])cc1`, for which the inhibition is inactive: 1.06%.
For the molecule `O=P1(Nc2nc3ccc(Cl)cc3s2)COc2ccccc2O1` (configuration not stated), the inhibition was inactive: 0.75%.
The result for `CCOc1ccc(C2=NCC(CBr)S2)cc1` (configuration not stated) reads inactive: -0.05%.
The result for `CCc1cc(O)c([N+](=O)[O-])c(C)c1[N+](=O)[O-]` reads inactive: 0.78%.
As for `CC(C)(C)C(=O)NC(Sc1ccccc1)C(Cl)(Cl)Cl` (configuration not stated), the figure is inactive: -3.08%.
For `COC(=O)c1cc2c(s1)N=C(c1ccccc1)N(C)P2(=O)N1CCOCC1` (configuration not stated), the inhibition was inactive: 0.27%.
`Cc1ccc(OP(=O)(Nc2ccccn2)Oc2ccc(C)cc2)cc1`: the inhibition is inactive: -0.9%.
As for `CC(=O)NC(SC(=S)N(CC(C)C)CC(C)C)C(Cl)(Cl)Cl` (configuration not stated), the figure is inactive: 0.31%.
As for `O=C(OC1CN2CCC1CC2)c1ccccc1` (configuration not stated), the figure is inactive: 1.58%; as for `CCC(=O)N1C2C3N(C(=O)CC)C1C1N(C(=O)CC)C(C(N1C(=O)CC)N3C(=O)CC)N2C(=O)CC`, inactive: -0.48%.
The result for `Cc1ccccc1OP(=O)(Nc1ccccn1)Oc1ccccc1C` reads inactive: -0.68%.
Take `CC(NC(=O)COC(=O)C(O)(c1ccccc1)c1ccccc1)c1ccccc1` (configuration not stated): the inhibition was inactive: 0.42%.
On to `CN(C)C(=O)Oc1noc2ccccc12`, for which the inhibition was inactive: -1.13%.
The result for `O=c1c2cc([N+](=O)[O-])ccc2[nH]c2c([N+](=O)[O-])cc([N+](=O)[O-])cc12` reads inactive: -4.88%; that for `O=C(NC1CCS(=O)(=O)C1)NP(=S)(Oc1ccccc1)Oc1ccccc1` (configuration not stated), inactive: 1.17%; that for `CCNC(=S)/N=C(\N)N[N+](=O)[O-]`, inactive: 0.33%.
The result for `O=P1(N(CCCl)CCCl)OCCC2CCCCN21` (configuration not stated) reads inactive: -1.63%; that for `O=[N+]([O-])c1ncn(CCn2cnc([N+](=O)[O-])n2)n1`, inactive: 1.81%.
For `CC(=O)NC(SC(=S)N(C)C)C(Cl)(Cl)Cl` (configuration not stated), the inhibition was inactive: -0.04%.
As for `O=[N+]([O-])c1ccc(O)c(/C=N/Nc2ccc([N+](=O)[O-])cc2[N+](=O)[O-])c1`, the figure is inactive: 0.23%; as for `O=[As](O)(c1ccccc1)c1ccc(O)cc1`, inactive: 0.56%; as for `Nc1ccc([As](=O)(O)c2ccc([N+](=O)[O-])cc2)cc1`, inactive: 2.47%.
As for `C(Cc1nn[nH]n1)Cc1nn[nH]n1`, the figure is inactive: -0.24%; as for `O=C(OC1CN2CCC1CC2)c1cccc(Cl)c1` (configuration not stated), inactive: 1.93%.
As for `COc1ccc(N)c([N+](=O)[O-])c1[N+](=O)[O-]`, the inhibition is inactive: -0.29%.
Turning to `CN(C)C1(CNC(=O)c2ccc(Cl)c(S(N)(=O)=O)c2)CCCCC1`, the inhibition was inactive: 1.76%.
Turning to `O=P(Nc1ccccn1)(c1ccc(Br)cc1)c1ccc(Br)cc1`, the inhibition is inactive: -0.08%.
Turning to `O=P(Nc1nc2ccccc2s1)(c1ccccc1)c1ccccc1`, the inhibition is inactive: -1.08%.
The result for `C[C@H]1OP(=O)(Oc2ccccc2)[C@H](O)[C@H](O)[C@H]1N=[N+]=[N-]` (some centres not stated) reads inactive: -1.13%.
The result for `O=P(Nc1nccs1)(c1ccccc1)c1ccccc1` reads inactive: 1.18%; that for `CC(C)C(=O)NC(Sc1ccccc1)C(Cl)(Cl)Cl` (configuration not stated), inactive: 1.27%; that for `c1nnnn1CCn1cnnn1`, inactive: 0.57%.
As for `Nc1ccc([As](=O)(O)c2ccc(N)cc2)cc1`, the figure is inactive: 1.8%.
With `C[N+]1=C2C=CC=CC=C2SC12C([N+](=O)[O-])=CC([N+](=O)[O-])=C[C-]2[N+](=O)[O-]` (configuration not stated), the inhibition was inactive: -7.88%.
The result for `CCN(/C(=N/P(=O)(N1CCOCC1)N1CCOCC1)N1CCOCC1)c1ccc(OC)cc1` reads inactive: 3%; that for `CC(C)=N/N=C(\N)N[N+](=O)[O-]`, inactive: -0.43%; that for `CC(C)c1nc(Nc2ccccc2)n(P(=O)(N(C)C)N(C)C)n1`, inactive: 0.3%.
On to `CN(C)C(=O)OCCc1n(C)cc[n+]1C`, for which the inhibition is inactive: -0.36%.
In the case of `c1cc(-c2nn[nH]n2)ccc1-c1nn[nH]n1`, the inhibition is inactive: 1.27%.
As to `CC1CCN(C(=O)Oc2c(Cl)cc(Cl)c3cccnc23)CC1`, the inhibition was inactive: -0.69%.
In the case of `COc1ccc(C2=NCC(CBr)S2)cc1` (configuration not stated), the inhibition was inactive: -0.05%.
The result for `CC(=O)N1C2C3N(C(C)=O)C1C1N(C(C)=O)C(C(N1C(C)=O)N3C(C)=O)N2C(C)=O` reads inactive: 0.62%; that for `O=[N+]([O-])c1cccc2n[nH]nc12`, inactive: 2.45%; that for `Cc1ccc(NP(=O)(Oc2ccccc2)Oc2ccccc2)nc1`, inactive: -0.51%.
As for `O=[N+]([O-])c1cc([N+](=O)[O-])c(CCNc2ccccc2)c([N+](=O)[O-])c1`, the figure is inactive: -0.91%; as for `CCc1nc2c(n1)c1c(non1O)c1c2no[n+]1[O-]`, inactive: -0.81%; as for `CC(C)(C)C(=O)NC(Sc1ccncn1)C(Cl)(Cl)Cl` (configuration not stated), inactive: 1.21%.
As for `O=[N+]([O-])c1ncn(CCn2ncnc2[N+](=O)[O-])n1`, the figure is inactive: 0.45%; as for `O=[N+]([O-])c1cccc(NC2=NCC(CBr)S2)c1` (configuration not stated), inactive: -0.25%.
Consider `COC(=O)C1(C)COP(=O)(Nc2ccccc2)OC1` (configuration not stated), for which the inhibition is inactive: 2.33%.
The result for `O=C(O)CNc1ccc([As](=O)(O)O)cc1` reads inactive: -0.96%.
As for `O=P1(N(CCCl)CCCl)OCCCS1` (configuration not stated), the figure is inactive: -0.27%; as for `O=C(Nc1cc([As](=O)(O)O)ccc1O)c1ccccc1`, inactive: 0.99%.
Turning to `CCN(N=Nc1nonc1N)c1nonc1N`, the inhibition was inactive: 1.67%.
As for `Nc1cccc2ccc([As](=O)(O)O)cc12`, the figure is inactive: -1.06%; as for `O=C(O)c1ccccc1[As](=O)(O)O`, inactive: 0.93%; as for `CC(=O)Nc1ccc([As](=O)(O)O)cc1`, inactive: -0.57%.
With `CCCC1OP(N)(=O)OCC1CC` (configuration not stated), the inhibition was inactive: 1.68%.
The result for `CN(C)P(=O)(N(C)C)n1c(Nc2ccccc2)nnc1-c1ccccc1` reads inactive: 2.16%; that for `O=P(Nc1nc2ccc(Cl)cc2s1)(c1ccccc1)c1ccccc1`, inactive: 0.94%; that for `CCOP(=O)(Nc1ccccc1)OCC`, inactive: -0.19%.
As for `Cc1cc(SC(NC(=O)c2ccc(F)cc2)C(Cl)(Cl)Cl)ncn1` (configuration not stated), the figure is inactive: 0.28%; as for `CN(C(=O)Cc1ccc(Cl)c(Cl)c1)[C@H]1CCCC[C@@H]1N1CCCC1`, inactive: 0.82%; as for `Cc1ccc(NP(=O)(Oc2ccccc2F)Oc2ccccc2F)nc1`, inactive: 2.47%.
The result for `CC(C)CC(=O)NC(Sc1ccc(Cl)cc1)C(Cl)(Cl)Cl` (configuration not stated) reads inactive: -0.99%.
With `Nc1cc(N)c2nonc2c1[N+](=O)[O-]`, the inhibition is inactive: 0.17%.
The result for `Oc1ccccc1CNc1ccccn1` reads inactive: -0.04%.
As for `O=C(NC(Sc1ccncn1)C(Cl)(Cl)Cl)c1ccccc1` (configuration not stated), the figure is inactive: -2.07%; as for `NC(=O)c1cc([N+](=O)[O-])cc([N+](=O)[O-])c1N`, active: 6.72%; as for `CN(C(=O)Cc1ccc(Cl)c(Cl)c1)[C@H]1CCCC[C@H]1N1CCCC1`, inactive: -0.7%.
As to `Cc1ccc(N/C(=N/P(=O)(N2CCOCC2)N2CCOCC2)N2CCOCC2)cc1`, the inhibition was inactive: -1.68%.
The result for `COc1ccccc1OP(=O)(Nc1ccc(C)cn1)Oc1ccccc1OC` reads inactive: 0.43%; that for `Clc1ccc(Cl)c(NC2=NCC(CBr)S2)c1` (configuration not stated), inactive: -1.6%; that for `CN1CCCC(OC(=O)C(c2ccccc2)c2ccccc2)C1` (configuration not stated), inactive: -1.06%.
Consider `COc1ccc(N/C(=N/P(=O)(N2CCOCC2)N2CCOCC2)N2CCOCC2)cc1`, for which the inhibition was inactive: -0.18%.
As for `O=[N+]([O-])c1cc(Oc2ccc([N+](=O)[O-])cc2C(F)(F)F)cc([N+](=O)[O-])c1`, the figure is inactive: -2.58%.
The result for `O=C(OC1CN2CCC1CC2)C12CC3CC(CC(C3)C1)C2` (configuration not stated) reads inactive: -0.47%; that for `Cc1cc(=O)[nH]c(N[N+](=O)[O-])n1`, inactive: 0.48%.
The result for `Cc1c2c(nc3ccccc13)SC(C(Cl)Cl)C2` (configuration not stated) reads inactive: -1.11%.
For the molecule `COc1ccc2nc(NP(=O)(c3ccccc3)c3ccccc3)sc2c1`, the inhibition is inactive: 0%.
`COc1cc(I)ccc1[As](=O)(O)O`: the inhibition is inactive: 1.04%.
Turning to `O=P1(N(CCCl)CCCl)Nc2ccccc2N1`, the inhibition was inactive: 1.44%.
As to `O=P1(N(CCCl)CCCl)OCCCN1CCCl` (configuration not stated), the inhibition was inactive: 2.08%.
As to `CC(C)c1ccc(OP(=O)(Nc2ccccn2)Oc2ccccc2F)cc1` (configuration not stated), the inhibition is inactive: 0.25%.
As for `COC(=O)C1(C)COP(=O)(N2CCCCCC2)OC1` (configuration not stated), the figure is inactive: 0.68%; as for `ClCCSc1nnc(-c2cccnc2)o1`, inactive: 2.42%.
For the molecule `O=C(OC1CN2CCC1CC2)c1cccc2[nH]cnc12` (configuration not stated), the inhibition is inactive: 2.91%.
As for `CCN(CC)C(=S)SC(NC=O)C(Cl)(Cl)Cl` (configuration not stated), the figure is inactive: -1.03%; as for `O=[N+]([O-])c1cc([N+](=O)[O-])c(-c2ccn[nH]2)s1`, inactive: -1.25%; as for `O=[As](O)(c1ccc(O)cc1)c1ccccc1O`, inactive: 2.53%.
The result for `C[As](=O)(O)c1cccc(C(=O)O)c1` reads inactive: 0.47%.
Regarding `COc1cc(C(=O)NCC2(N3CCOCC3)CCCCC2)ccc1OCC(C)C`, the inhibition is inactive: -0.42%.
The result for `O=[N+]([O-])c1ccc(-c2cc([N+](=O)[O-])c(O)c([N+](=O)[O-])c2)cc1` reads inactive: 0.94%; that for `Cc1ccc2nc3c(c(C)c2c1)CC(C(Cl)Cl)S3` (configuration not stated), inactive: 0.55%.
As for `Cc1ccc(OP(=O)(Nc2ccc([N+](=O)[O-])cn2)Oc2ccc(C)cc2)cc1`, the figure is inactive: 0.83%.
